Data on one substance can be found in patent US20240285765A1, “PHTHALOCYANINE DYE COMPOUNDS, CONJUGATES AND METHODS OF USE THEREOF” (Rakuten Medical, Inc., priority 2021, published 2024).

The data set can be described thus: Thermodynamic solubility in pH 7.4 DPBS, UV quantification. The settings on record: 24 hours, room temperature (25° C.). It is filed as physicochemical. On the procedure:
A working 1 mM stock solution of the test compound in DMSO was prepared from a 10 mM DMSO stock solution. A spectrum scan from 220 nm to 1000 nm of this working solution was performed in a 96-well UV plate to identify the wavelength maxima. […] The selected stock solution was serially diluted in DMSO to confirm linearity and generate a seven to eight-point calibration curve. Of note, only linear points were considered in the curve.
The resulting solution was placed on a RotoSpin™ shaker at 50 rpm for 24 hours at room temperature (25° C.). The solution was then filtered using a 0.45 μm PVDF filter to remove any insoluble fraction of the compound. A 150 μL aliquot of the filtrate was taken for quantification using UV spectroscopy (POLARstar Omega BMG Plate Reader). The optical densities of the standard solutions and the test sample were acquired at the same wavelength maxima. The test sample concentration was calculated from its optical density using the linearity/calibration curve.

For “Sodium 2-((19-((dimethyl(3-(tris(3-sulfonatopropyl)ammonio)propyl)silyl)oxy)-19H-6,11-(azeno)-17,21-(azeno[3]episoindoloazeno)benzo[7,8][1,3,5,10]tetraaza[2]silacycloundecino[4,3-a:11,1-a′]diisoindol-19-yl)oxy)-2-methyl-6,6-bis(3-sulfonatopropyl)-9,12-dioxa-6-aza-2-silapentadecan-6-ium-15-oate [Example 21]”, the “Solubility* (thermodynamic solubility)” value is reported as “C (C: >100 μg/mL)”.
